IC50 data for eleven molecules are collected here from patent publication US7655670B2 (Janssen Pharmaceutica N.V., priority 2005, dated 2010).

Protein sequences, listed by entry. Tags and fused reporters are not part of them. Lines headed by an entry give the natural chain unless they say otherwise; changes in a name come on top.
UniProt P41146: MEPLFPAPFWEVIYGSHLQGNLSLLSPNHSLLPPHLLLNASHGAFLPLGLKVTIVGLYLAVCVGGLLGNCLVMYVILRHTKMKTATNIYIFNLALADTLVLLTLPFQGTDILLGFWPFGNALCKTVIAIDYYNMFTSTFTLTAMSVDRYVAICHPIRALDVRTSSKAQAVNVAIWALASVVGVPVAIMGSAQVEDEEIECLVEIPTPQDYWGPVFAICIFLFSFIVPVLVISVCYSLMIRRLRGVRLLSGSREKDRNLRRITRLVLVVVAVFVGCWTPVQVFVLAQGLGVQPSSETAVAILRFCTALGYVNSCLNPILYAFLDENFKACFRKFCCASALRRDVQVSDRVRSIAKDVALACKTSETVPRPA

pIC50: −log10 of the molar value. A value given as a limit tells only on which side of the number the result lay.

A word on the pIC50: it is the IC50 on a negative log10 scale, so that one unit is a factor of ten.

The assay has as its target human nociceptin receptor (ORL-1) (Homo sapiens, UniProt P41146). Put plainly: nociceptin receptor (ORL-1) binding assay, 125I-Tyr14-nociceptin displacement. To be noted: HEK293 cell membranes, 0.5 nM 125I-Tyr14-nociceptin; calculated mean where tested more than once.
For the molecule `CCCCCCC(CCCC)CN1CCC2(CC1)C(=O)N(CC(=O)OC)c1ccccc12` (centres unmarked), the negative-log IC50 (pIC50) was less than 5.00.
To `COC(=O)CN1C(=O)C2(CCN(Cc3ccccc3-c3ccsc3)CC2)c2ccccc21` belongs less than 5.00.
To `CN1CCC2(CC1)C(=O)N(CCOC1CCCCO1)c1ccccc12` (centres unmarked) belongs less than 5.00; to `COC(=O)CN1C(=O)C2(CCN(C3Cc4cccc5cccc3c45)CC2)c2ccccc21` (centres unmarked) [Compound 30], 6.46; to `CCN1CC2(CCN(CC3CCCCCCC3)CC2)c2ccc(OC)cc21` [Compound 63], 5.47.
With `COC(=O)CN1C(=O)C2(CCN(CCc3ccccc3)CC2)c2ccccc21`, the negative logarithm of the IC50 (pIC50) was less than 5.00.
The same measure for `CCCN1C(=O)C2(CCN(CC3CCCCCCC3)CC2)c2cc(C(C)C)ccc21` [Compound 17]: less than 5.00; for `O=C(O)CN1C(=O)C2(CCN(CC3CCCCCCC3)CC2)c2ccccc21` [Compound 41]: less than 5.00; for `CC(=O)N[C@@H](CSCC(O)CN1C(=O)C2(CCN(CC3CCCCCCC3)CC2)c2ccccc21)C(=O)O` (some centres unmarked) [Compound 16]: 6.96.
Turning to `O=C1N(CC2CCCCC2)c2ccccc2C12CCN(C1Cc3cccc4cccc1c34)CC2` (centres unmarked) [Compound 4], the pIC50 is less than 5.00.
To `COC(=O)CN1C(=O)C2(CCN(Cc3ccc(-c4ccccc4)cc3)CC2)c2ccccc21` belongs less than 5.00.
